Patent US20190275027A1 (priority 2018, published 2019)
Like-named read-outs stand apart in the source and are kept apart here.

Amino acid sequences for entries named in this document (tags omitted).
UniProt P15381, whole entry: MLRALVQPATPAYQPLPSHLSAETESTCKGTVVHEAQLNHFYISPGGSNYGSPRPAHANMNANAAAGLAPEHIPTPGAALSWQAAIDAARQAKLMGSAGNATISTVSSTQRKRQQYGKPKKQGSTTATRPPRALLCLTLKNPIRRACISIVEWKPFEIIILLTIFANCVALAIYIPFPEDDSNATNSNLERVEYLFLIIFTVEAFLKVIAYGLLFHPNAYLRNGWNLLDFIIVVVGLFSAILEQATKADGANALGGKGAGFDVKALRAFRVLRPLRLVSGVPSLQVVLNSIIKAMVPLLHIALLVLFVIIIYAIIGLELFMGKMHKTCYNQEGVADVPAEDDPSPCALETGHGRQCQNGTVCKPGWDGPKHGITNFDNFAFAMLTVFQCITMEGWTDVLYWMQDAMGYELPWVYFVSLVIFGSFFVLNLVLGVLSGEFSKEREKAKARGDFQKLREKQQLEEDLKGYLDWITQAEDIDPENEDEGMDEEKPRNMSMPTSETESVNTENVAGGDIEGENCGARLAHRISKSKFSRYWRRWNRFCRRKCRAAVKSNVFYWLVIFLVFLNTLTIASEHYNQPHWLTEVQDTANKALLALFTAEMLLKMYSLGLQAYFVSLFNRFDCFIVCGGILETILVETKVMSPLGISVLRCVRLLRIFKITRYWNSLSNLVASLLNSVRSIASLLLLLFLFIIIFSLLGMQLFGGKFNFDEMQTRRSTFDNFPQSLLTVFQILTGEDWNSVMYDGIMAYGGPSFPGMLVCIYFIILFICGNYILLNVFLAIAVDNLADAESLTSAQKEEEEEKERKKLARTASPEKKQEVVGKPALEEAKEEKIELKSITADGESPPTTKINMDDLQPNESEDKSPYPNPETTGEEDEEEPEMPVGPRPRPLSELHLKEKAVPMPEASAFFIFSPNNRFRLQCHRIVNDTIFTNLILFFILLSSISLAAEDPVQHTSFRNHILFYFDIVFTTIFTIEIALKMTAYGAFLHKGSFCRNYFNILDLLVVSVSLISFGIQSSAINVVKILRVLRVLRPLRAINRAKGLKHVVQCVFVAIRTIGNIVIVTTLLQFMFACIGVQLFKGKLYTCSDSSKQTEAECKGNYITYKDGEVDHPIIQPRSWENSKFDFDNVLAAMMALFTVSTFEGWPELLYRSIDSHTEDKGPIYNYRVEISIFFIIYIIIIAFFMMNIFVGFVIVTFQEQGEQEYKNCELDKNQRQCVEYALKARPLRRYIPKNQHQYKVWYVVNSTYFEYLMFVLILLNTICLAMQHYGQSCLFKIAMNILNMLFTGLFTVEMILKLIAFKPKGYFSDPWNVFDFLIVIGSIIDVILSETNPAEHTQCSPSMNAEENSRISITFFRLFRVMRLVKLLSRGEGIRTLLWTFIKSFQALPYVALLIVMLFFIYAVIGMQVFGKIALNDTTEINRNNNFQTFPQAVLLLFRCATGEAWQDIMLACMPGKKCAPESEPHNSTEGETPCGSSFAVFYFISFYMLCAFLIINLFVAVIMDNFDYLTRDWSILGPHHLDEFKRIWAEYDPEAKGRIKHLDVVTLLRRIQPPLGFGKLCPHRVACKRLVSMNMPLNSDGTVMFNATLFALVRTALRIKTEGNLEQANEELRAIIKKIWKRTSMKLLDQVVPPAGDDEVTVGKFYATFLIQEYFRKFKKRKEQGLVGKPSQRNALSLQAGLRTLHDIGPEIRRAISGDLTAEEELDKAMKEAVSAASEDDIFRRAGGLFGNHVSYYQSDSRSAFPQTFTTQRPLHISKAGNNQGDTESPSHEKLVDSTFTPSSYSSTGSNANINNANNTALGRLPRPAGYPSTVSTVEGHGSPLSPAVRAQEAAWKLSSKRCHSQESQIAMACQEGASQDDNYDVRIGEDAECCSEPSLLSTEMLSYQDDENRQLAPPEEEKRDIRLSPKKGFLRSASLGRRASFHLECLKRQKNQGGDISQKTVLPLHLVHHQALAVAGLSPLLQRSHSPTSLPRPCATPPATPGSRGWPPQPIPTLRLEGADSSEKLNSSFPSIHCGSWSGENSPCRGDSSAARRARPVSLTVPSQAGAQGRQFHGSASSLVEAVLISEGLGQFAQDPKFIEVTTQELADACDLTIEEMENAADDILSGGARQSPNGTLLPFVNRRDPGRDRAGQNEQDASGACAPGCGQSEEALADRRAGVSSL

Target: L-type channel CaV1.2 (UniProt P15381)
Details: read-out: L-Activity IC50, HEK293 CaV1.2 cells, 83 mM KCl, 2 replicates

Compound	IC50	IC50 (listed as B3-34^SS)
COc1ccc2c(c1)CCN(C)[C@@H]2Cc1ccc(Oc2ccc(C[C@@H]3c4cc(OC)c(OC)cc4CCN3C)cc2OC)cc1	3080 nM	
COc1ccc2c(c1)CCN(C)[C@@H]2Cc1ccc(Oc2cc(C[C@@H]3c4ccc(OC)cc4CCN3C)ccc2OC)cc1	470 nM	
COc1ccc2c(c1)CCN(C)[C@@H]2Cc1cccc(Oc2cc(C[C@@H]3c4cc(OC)c(OC)cc4CCN3C)ccc2OC)c1	1040 nM	
COc1ccc2c(c1)CCN(C)[C@@H]2Cc1ccc(OC)c(Oc2ccc(C[C@@H]3c4cc(OC)c(OC)cc4CCN3C)cc2)c1	2270 nM	
COc1ccc2c(c1)CCN(C)[C@@H]2Cc1ccc(Oc2cccc(C[C@@H]3c4cc5c(cc4CCN3C)OCO5)c2)cc1	350 nM	730 nM
